Source: ChEMBL document CHEMBL4387703, “Lead optimization and biological evaluation of fragment-based cN-II inhibitors” (Eur J Med Chem, 2019)

By UniProt entry, the sequences of proteins in these tests, tags left out.
UniProt P21589, whole entry: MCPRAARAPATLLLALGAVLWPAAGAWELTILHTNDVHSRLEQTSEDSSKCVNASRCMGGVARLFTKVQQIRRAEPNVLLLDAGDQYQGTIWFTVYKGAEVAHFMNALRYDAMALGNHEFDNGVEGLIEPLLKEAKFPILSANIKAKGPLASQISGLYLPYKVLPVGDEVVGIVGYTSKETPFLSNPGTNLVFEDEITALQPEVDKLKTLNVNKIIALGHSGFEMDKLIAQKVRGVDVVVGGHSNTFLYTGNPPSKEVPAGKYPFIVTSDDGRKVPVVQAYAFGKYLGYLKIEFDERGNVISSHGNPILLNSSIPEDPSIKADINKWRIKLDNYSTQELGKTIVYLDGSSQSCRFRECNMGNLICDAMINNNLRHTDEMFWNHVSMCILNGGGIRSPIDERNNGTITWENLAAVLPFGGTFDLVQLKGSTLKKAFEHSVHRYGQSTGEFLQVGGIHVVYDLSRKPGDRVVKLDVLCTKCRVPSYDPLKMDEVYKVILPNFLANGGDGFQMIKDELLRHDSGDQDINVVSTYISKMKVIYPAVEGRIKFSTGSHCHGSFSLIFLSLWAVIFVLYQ

Columns and labels:
[1] = molecular target: 5'-nucleotidase (Homo sapiens) (UniProt P21589); conditions: RL
[2] = molecular target: 5'-nucleotidase (Homo sapiens) (UniProt P21589); conditions: RL; remark: listed apart in the source
[3] = molecular target: 5'-nucleotidase (Homo sapiens) (UniProt P21589); conditions: CCRF-CEM
[4] = molecular target: 5'-nucleotidase (Homo sapiens) (UniProt P21589)
[5] = molecular target: 5'-nucleotidase (Homo sapiens) (UniProt P21589); remark: listed apart in the source
[6] = molecular target: 5'-nucleotidase (Homo sapiens) (UniProt P21589); conditions: RL; remark: listed apart in the source
[7] = molecular target: 5'-nucleotidase (Homo sapiens) (UniProt P21589); conditions: CCRF-CEM; remark: listed apart in the source
[8] = molecular target: 5'-nucleotidase (Homo sapiens) (UniProt P21589); remark: listed apart in the source

Measured: CI

CCOP(=O)(Cn1cnc2c(NC(=O)c3cccc(-c4ccccc4)c3)ncnc21)OCC
< 0.9: [1]

O=C(Nc1ncnc2ncn(COCc3ccccc3)c12)c1cccc(-c2ccccc2)c1
< 0.9: [1] | [2]

O=C(Nc1ncnc2c1ncn2Cc1ccccc1)c1cccc(-c2ccccc2)c1
not listed: [1] | [2]
< 0.9: all other assays above

O=C(Nc1ncnc2ncn(Cc3ccccc3)c12)c1cccc(-c2ccccc2)c1
< 0.9: [1] | [4] | [2] | [6] | [7]
